Assay results from patent US20250376659A1, “DERIVATION OF SOMATOTROPHS FROM STEM CELLS AND USES THEREOF” (MEMORIAL SLOAN-KETTERING CANCER CENTER, priority 2017, published 2025).

System: Human ES or iPS cells
Experiment: Marker gene expression during step-wise differentiation of human pluripotent stem cells to somatotrophs
Assay type: cell-based
Details: BMP2 added to FGF8 treatment, FIG. 5
Experimental: Human ES or iPS cells were expanded in E8 media on matrigel.
On day 0, cells were changed to E6 media where BMP4 (5 ng/ml) and SB43152 (10 μM) were added, with daily medium and factors change.
On day 3, BMP4 was removed and the following factors added: FGF8 (100 ng/ml); FGF10 (50 ng/ml); FGF18 (50 ng/ml); Sonic hedgehog (SHH) (100 ng/ml) or SAG (Smoothened Agonist) (100 nM); LDN193189 (250 nM). Media and factors were changed every other day.
Media and factors are changed every other day.
On day 15, the following factors were used: Retinoic acid (1 μM); Thyroid hormone T3 (10 nM); Dexamethasone (1 μM); cyclic AMP (100 μg/ml); DPN (0.1 nM); Growth Hormone Releasing Hormone (GHRH) (1 μM). Media and factors were changed every other day.
On day 29, the cells entered the maturation phase and could be maintained in the same factors for a variable period ranging from 1-4 weeks. […] They could be subjected to FACS sorting for GHRH in order to obtain a pure cell population of somatotrophs. Cells remained on matrigel for the duration of the protocol.
In order to derive GH cells, the strategy was to first differentiate human pluripotent stem cells to pre-placodal ectoderm and anterior pituitary progenitors. The cells were further differentiated to PROP1 lineage, and then to PIT1 lineage. The cells were then terminally differentiated to GH cells. […]

B1: BMP2: BMP molecule, ventralizing agent (protein, UniProt P12643 283-396, looked up)
Bone morphogenetic protein 2: QAKHKQRKRLKSSCKRHPLYVDFSDVGWNDWIVAPPGYHAFYCHGECPFPLADHLNSTNHAIVQTLVNSVNSKIPKACCVPTELSAISMLYLDENEKVVLKNYQDMVVEGCGCR
effects of FGF8 on PROP1, PIT1 and POMC expression: neutralized
